Measurements from patent US10179128B2, “Regimens for treating and preventing lysosomal disorders and degenerative disorders of the central nervous system” (Amicus Therapeutics, Inc., priority 2015, dated 2019).

What was measured:
[1] = target: T1, GCase N370S (Homo sapiens, UniProt P04062, N409S); assay: cell-based
T1 sequence (P04062 40-536 N409S): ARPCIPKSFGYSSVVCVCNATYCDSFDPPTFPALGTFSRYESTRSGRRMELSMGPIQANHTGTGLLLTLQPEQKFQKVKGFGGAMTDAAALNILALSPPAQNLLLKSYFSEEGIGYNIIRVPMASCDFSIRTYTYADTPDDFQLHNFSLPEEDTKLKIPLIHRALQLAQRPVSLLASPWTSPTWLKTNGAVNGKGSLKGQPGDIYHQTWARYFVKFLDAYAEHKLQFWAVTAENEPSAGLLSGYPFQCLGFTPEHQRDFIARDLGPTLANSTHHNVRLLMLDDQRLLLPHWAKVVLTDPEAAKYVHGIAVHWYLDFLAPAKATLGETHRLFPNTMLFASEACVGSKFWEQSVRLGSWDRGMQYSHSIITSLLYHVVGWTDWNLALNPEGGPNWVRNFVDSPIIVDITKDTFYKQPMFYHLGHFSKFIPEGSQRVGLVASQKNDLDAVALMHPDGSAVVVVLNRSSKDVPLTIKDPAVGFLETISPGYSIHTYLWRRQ

[2] = target: T2, rhGCase L444P (Homo sapiens, UniProt P04062, L483P); assay: biochemical; settings: purified recombinant enzyme mutant
T2 sequence (P04062 40-536 L483P): T1 sequence (P04062 40-536 N409S) with S370N, L444P

[3] = target: T1, GCase N370S; settings: read-out: IC50, rhGCase N370S; purified recombinant enzyme mutant
[4] = target: T3, rhGCase Wild-type (Homo sapiens, UniProt P04062); assay: biochemical; settings: purified recombinant enzyme
T3 sequence (P04062 40-536): T1 sequence (P04062 40-536 N409S) with S370N

[5] = target: T4, GCase (Homo sapiens, UniProt P04062); assay: biochemical
T4 sequence (P04062 40-536): T1 sequence (P04062 40-536 N409S) with S370N

[6] = target: T1, GCase N370S; assay: biochemical

Row | SMILES | EC50 [1] [nM] | IC50 ([2]; IC50, rhGCase L444P) [nM] | IC50 [3] [nM] | IC50 ([4]; IC50, rhGCase Wild-type) [nM] | Ki ([5]; Ki pH 5.2, pH 5.2) [nM] | Ki ([5]; Ki pH 7, pH 7) [nM] | IC50 [6] [nM] | IC50 ([2]; IC50, L444P enzyme mutant, in the 50 nM range) [nM] | IC50 ([4]; IC50, wild-type enzyme, in the 50 nM range) [nM]
1 | O[C@H]1[C@H](O)CNC[C@@H]1C(F)F [Compound 1] | 18 | 46 | 556 | 36 | 14 | 3 | – | – | –
2 | O=C(O)/C=C/C(=O)O.O[C@H]1[C@H](O)CNC[C@@H]1C(F)F [Compound 3] | – | – | – | – | – | – | 556 | ~50 | ~50

Substitutions are numbered along the chain they refer to. Like-named read-outs stand apart in the source and are kept apart here.
